Measurements from publication PMC4281022 (Journal of medicinal chemistry, 2013).

Chains of the proteins cited; added tags and fusions are not shown.
UniProt P47746, whole entry: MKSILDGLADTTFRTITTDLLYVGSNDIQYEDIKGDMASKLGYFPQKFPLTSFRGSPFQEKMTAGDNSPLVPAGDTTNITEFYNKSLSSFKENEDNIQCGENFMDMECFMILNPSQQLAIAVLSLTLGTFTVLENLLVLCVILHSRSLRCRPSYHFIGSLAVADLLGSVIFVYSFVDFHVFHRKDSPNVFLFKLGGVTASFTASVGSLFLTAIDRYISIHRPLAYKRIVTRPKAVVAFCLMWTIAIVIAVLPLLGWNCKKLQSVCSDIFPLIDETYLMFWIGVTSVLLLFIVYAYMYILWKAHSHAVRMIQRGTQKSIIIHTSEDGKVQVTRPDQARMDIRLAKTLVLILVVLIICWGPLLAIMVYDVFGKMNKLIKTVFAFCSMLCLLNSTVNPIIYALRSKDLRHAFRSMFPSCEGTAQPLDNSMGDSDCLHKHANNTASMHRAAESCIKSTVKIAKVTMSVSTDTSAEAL
UniProt P21554, whole entry: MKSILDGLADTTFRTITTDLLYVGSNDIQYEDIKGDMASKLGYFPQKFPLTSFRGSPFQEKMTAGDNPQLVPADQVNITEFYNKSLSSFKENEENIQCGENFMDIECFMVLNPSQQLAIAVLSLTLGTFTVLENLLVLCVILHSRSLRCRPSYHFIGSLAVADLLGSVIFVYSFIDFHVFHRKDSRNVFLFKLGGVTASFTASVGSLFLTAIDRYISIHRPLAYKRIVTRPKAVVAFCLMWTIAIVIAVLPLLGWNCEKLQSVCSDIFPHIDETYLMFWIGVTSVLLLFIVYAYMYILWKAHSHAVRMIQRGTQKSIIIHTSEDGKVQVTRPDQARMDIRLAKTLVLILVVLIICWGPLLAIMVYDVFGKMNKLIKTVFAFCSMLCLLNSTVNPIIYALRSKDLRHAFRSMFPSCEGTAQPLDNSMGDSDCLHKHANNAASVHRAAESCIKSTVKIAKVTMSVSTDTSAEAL

Assays:
[1] = target: CB1 receptor (Mus musculus, UniProt P47746); assay: Tetrad test: attenuation of central effects of Δ^9-THC; type: in vivo; conditions: 30 mg/kg i.v., ICR mice, p < 0.05, with or without 9
[2] = target: human CB1 (Homo sapiens, UniProt P21554); assay: [3H]CP55940 radioligand displacement at CB1, membranes of CHO-K1 cells; type: binding; conditions: ratio of Ki values

## CCCCCc1cc(O)c2c(c1)OC(C)(C)[C@@H]1CCC(C)=C[C@@H]21 [Δ^9-THC, Δ^9-tetrahydrocannabinol, reference compound]
[1]
  Antinociception, warm water tail withdrawal: produced antinociception
  Catalepsy, ring immobility: catalepsy
  Hypothermia, rectal temperature: hypothermia
  Spontaneous (locomotor) activity: significantly suppressed locomotor activity

## O=C(NC1CCN(c2ncnc3c2nc(-c2ccccc2Cl)n3-c2ccc(Cl)cc2)CC1)Oc1ccccc1 [Compound 7, Phenyl N-{1-[8-(2-chlorophenyl)-9-(4-chlorophenyl)-9H-purin-6-yl]piperidin-4-yl}carbamate]
[2]
  Selectivity for CB1 over CB2: > 4000 fold
